Laboratory results reported in ChEMBL document CHEMBL5131455, “A kinase inhibitor which specifically targets the ABL myristate pocket (STAMP), but unlike asciminib crosses the blood-brain barrier” (Bioorg Med Chem Lett, 2022).

Test: in vivo
Conditions: rat, brain and blood, po, 30 mg/kg

Kp: 100
SMILES: O=C(Nc1ccc(OC(F)(F)Cl)cc1)c1cnc(N2CC[C@@H](O)C2)c(-c2ccn[nH]2)c1 [ASCIMINIB]
